Values of other authors in patent US7776572B2, “Method for reducing loss of enzyme activity during storage” (Corning Incorporated, priority 1996, dated 2010).

System: rat
Conditions: cited from earlier work

Row | Substance | LD50 [grams/Kg]
1 | SORBITOL MONO-STEARATE | >15
2 | SORBITOL TRI-STEARATE | >15
3 | PEO(4) SORBITOL MONO-LAURATE | >38
4 | PEO(20) SORBITOL TRI-STEARATE | >39
